{"source": "patent US20230202975A1", "about": "(Recordati Industria Chimica e Farmaceutica S.p.A., priority 2021, published 2023)", "key": {"[1]": {"settings": "DVS, 25° C."}, "[2]": {"settings": "40±2° C., 75±5% R.H."}, "[3]": {"assay": "Particle size distribution (laser particle size analyser, Ph. Eur. 2.9.31)", "format": "physicochemical", "settings": "media on 3 batches; sieved 600 microns, no micronization", "experimental": "Particle size distribution was evaluated in line with European Pharmacopeia 2.9.31 with the instrument and according to sample preparation and test conditions reported in the following Table 3: […]"}, "[4]": {"settings": "25±2° C., 60±5% R.H., 12 months"}, "[5]": {"settings": "25±2° C., 60±5% R.H., 18 months"}, "[6]": {"settings": "25±2° C., 60±5% R.H., 24 months"}, "[7]": {"settings": "25±2° C., 60±5% R.H., 36 months"}}, "note": "“And” between values parts separate entries of the source, which are not always exact repeats. Equal values may be shown once. Read-outs that look alike come from different tables or passages of the source.", "data": [{"substance": "Cysteamine Bitartrate [Example 4]", "values": [{"measurement": "HPLC Related Substances %: 2,2-dimethylthiazolidine", "setting": "25±2° C., 60±5% R.H., 0 months", "result": "<0.02", "unit": "%"}, {"measurement": "HPLC Related Substances %: Cystamine", "setting": "25±2° C., 60±5% R.H., 0 months", "result": "0.08% and 0.05% and 0.09%"}, {"measurement": "HPLC Related Substances %: Di-Cysteamine acetonide", "setting": "25±2° C., 60±5% R.H., 0 months", "result": "<0.02", "unit": "%"}, {"measurement": "HPLC Related Substances %: Total of impurities", "setting": "25±2° C., 60±5% R.H., 0 months", "result": "0.08% and 0.05% and 0.09%"}, {"measurement": "Volumetric Assay (on dried basis) %", "setting": "25±2° C., 60±5% R.H., 0 months", "result": "99.8% and 100.2% and 99.7%"}, {"measurement": "HPLC Related Substances %: 2,2-dimethylthiazolidine", "setting": "25±2° C., 60±5% R.H., 6 months", "result": "<0.02", "unit": "%"}, {"measurement": "HPLC Related Substances %: Cystamine", "setting": "25±2° C., 60±5% R.H., 6 months", "result": "0.10% and 0.09%"}, {"measurement": "HPLC Related Substances %: Di-Cysteamine acetonide", "setting": "25±2° C., 60±5% R.H., 6 months", "result": "<0.02", "unit": "%"}, {"measurement": "HPLC Related Substances %: Other impurities", "setting": "25±2° C., 60±5% R.H., 6 months", "result": "<0.02", "unit": "%"}, {"measurement": "HPLC Related Substances %: Total of impurities", "setting": "25±2° C., 60±5% R.H., 6 months", "result": "0.10% and 0.09%"}, {"measurement": "Loss on drying", "setting": "25±2° C., 60±5% R.H., 6 months", "result": "0.07% and 0.15% and 0.14%"}, {"measurement": "Volumetric Assay (on dried basis) %", "setting": "25±2° C., 60±5% R.H., 6 months", "result": "99.6% and 99.9%"}, {"measurement": "HPLC Related Substances %: 2,2-dimethylthiazolidine", "setting": "[4]", "result": "<0.02", "unit": "%"}, {"measurement": "HPLC Related Substances %: Cystamine", "setting": "[4]", "result": "0.11% and 0.09%"}, {"measurement": "HPLC Related Substances %: Di-Cysteamine acetonide", "setting": "[4]", "result": "<0.02", "unit": "%"}, {"measurement": "HPLC Related Substances %: Other impurities", "setting": "[4]", "result": "<0.02", "unit": "%"}, {"measurement": "HPLC Related Substances %: Total of impurities", "setting": "[4]", "result": "0.11% and 0.09%"}, {"measurement": "Loss on drying", "setting": "[4]", "result": "0.20% and 0.25% and 0.19%"}, {"measurement": "Volumetric Assay (on dried basis) %", "setting": "[4]", "result": "99.9% and 99.4% and 99.5%"}, {"measurement": "HPLC Related Substances %: 2,2-dimethylthiazolidine", "setting": "[5]", "result": "<0.02", "unit": "%"}, {"measurement": "HPLC Related Substances %: Cystamine", "setting": "[5]", "result": "0.12% and 0.11%"}, {"measurement": "HPLC Related Substances %: Di-Cysteamine acetonide", "setting": "[5]", "result": "<0.02", "unit": "%"}, {"measurement": "HPLC Related Substances %: Other impurities", "setting": "[5]", "result": "<0.02", "unit": "%"}, {"measurement": "HPLC Related Substances %: Total of impurities", "setting": "[5]", "result": "0.12% and 0.11%"}, {"measurement": "Loss on drying", "setting": "[5]", "result": "0.14% and 0.07%"}, {"measurement": "Volumetric Assay (on dried basis) %", "setting": "[5]", "result": "99.8% and 100.0% and 99.7%"}, {"measurement": "HPLC Related Substances %: 2,2-dimethylthiazolidine", "setting": "[6]", "result": "<0.02", "unit": "%"}, {"measurement": "HPLC Related Substances %: Cystamine", "setting": "[6]", "result": "0.13% and 0.12%"}, {"measurement": "HPLC Related Substances %: Di-Cysteamine acetonide", "setting": "[6]", "result": "<0.02% and 0.02%"}, {"measurement": "HPLC Related Substances %: Other impurities", "setting": "[6]", "result": "<0.02", "unit": "%"}, {"measurement": "HPLC Related Substances %: Total of impurities", "setting": "[6]", "result": "0.13% and 0.12%"}, {"measurement": "Loss on drying", "setting": "[6]", "result": "0.30% and 0.27% and 0.38%"}, {"measurement": "Volumetric Assay (on dried basis) %", "setting": "[6]", "result": "99.8% and 99.6% and 99.7%"}, {"measurement": "Volumetric Assay (on anhydrous) %", "setting": "[7]", "result": "100.5% and 100.2% and 100.4%"}, {"measurement": "Water Content (K.F.) %", "setting": "[7]", "result": "0.81% and 0.47% and 0.67%"}, {"measurement": "Stability duration", "setting": "long term storage", "result": "≥ 36", "unit": "months"}, {"measurement": "RH at which the hydration process (conversion into the hydrate form) started", "setting": "[1]", "result": 25, "unit": "% RH"}, {"measurement": "RH at which the hydration process finished", "setting": "[1]", "result": 35, "unit": "% RH"}, {"measurement": "water gained during hydration", "setting": "[1]; about 1 mol of water", "result": 7.5, "unit": "% w/w"}, {"measurement": "HPLC Related Substances %: 2,2-dimethylthiazolidine", "setting": "[2]; 0 months", "result": "<0.02", "unit": "%"}, {"measurement": "HPLC Related Substances %: Cystamine", "setting": "[2]; 0 months", "result": "0.08% and 0.05% and 0.09%"}, {"measurement": "HPLC Related Substances %: Di-Cysteamine acetonide", "setting": "[2]; 0 months", "result": "<0.02", "unit": "%"}, {"measurement": "HPLC Related Substances %: Other impurities", "setting": "[2]; 0 months", "result": "<0.02% and <0.05%"}, {"measurement": "HPLC Related Substances %: Total of impurities", "setting": "[2]; 0 months", "result": "0.08% and 0.05% and 0.09%"}, {"measurement": "Volumetric Assay (on anhydrous) %", "setting": "[2]; 0 months", "result": "99.8% and 100.2%"}, {"measurement": "HPLC Related Substances %: 2,2-dimethylthiazolidine", "setting": "[2]; 3 months", "result": "<0.02", "unit": "%"}, {"measurement": "HPLC Related Substances %: Cystamine", "setting": "[2]; 3 months", "result": "0.14% and 0.11% and 0.09%"}, {"measurement": "HPLC Related Substances %: Di-Cysteamine acetonide", "setting": "[2]; 3 months", "result": "<0.02", "unit": "%"}, {"measurement": "HPLC Related Substances %: Other impurities", "setting": "[2]; 3 months", "result": "<0.05% and <0.02%"}, {"measurement": "HPLC Related Substances %: Total of impurities", "setting": "[2]; 3 months", "result": "0.14% and 0.11% and 0.09%"}, {"measurement": "Loss on drying", "setting": "[2]; 3 months", "result": "0.04% and 0.03% and 0.02%"}, {"measurement": "Volumetric Assay (on anhydrous) %", "setting": "[2]; 3 months", "result": "99.5% and 99.4%"}, {"measurement": "HPLC Related Substances %: 2,2-dimethylthiazolidine", "setting": "[2]; 6 months", "result": "<0.02", "unit": "%"}, {"measurement": "HPLC Related Substances %: Cystamine", "setting": "[2]; 6 months", "result": "0.20% and 0.10% and 0.13%"}, {"measurement": "HPLC Related Substances %: Di-Cysteamine acetonide", "setting": "[2]; 6 months", "result": "<0.02", "unit": "%"}, {"measurement": "HPLC Related Substances %: Other impurities", "setting": "[2]; 6 months", "result": "<0.05% and <0.02%"}, {"measurement": "HPLC Related Substances %: Total of impurities", "setting": "[2]; 6 months", "result": "0.20% and 0.10% and 0.13%"}, {"measurement": "Volumetric Assay (on anhydrous) %", "setting": "[2]; 6 months", "result": "99.8% and 99.7% and 99.6%"}, {"measurement": "Average particle size by volume D50", "setting": "[3]", "result": "D50: 28.4 μm"}, {"measurement": "Average particle size by volume D90", "setting": "[3]", "result": "D90: 102.5 μm"}]}]}
